Experimental data published in ChEMBL document CHEMBL1135353, “Synthesis and initial SAR studies of 3,6-disubstituted pyrazolo[1,5-a]pyrimidines: a new class of KDR kinase inhibitors” (Bioorg Med Chem Lett, 2002).

Amino acid sequences for entries named in this document (tags omitted).
UniProt P35968, whole entry: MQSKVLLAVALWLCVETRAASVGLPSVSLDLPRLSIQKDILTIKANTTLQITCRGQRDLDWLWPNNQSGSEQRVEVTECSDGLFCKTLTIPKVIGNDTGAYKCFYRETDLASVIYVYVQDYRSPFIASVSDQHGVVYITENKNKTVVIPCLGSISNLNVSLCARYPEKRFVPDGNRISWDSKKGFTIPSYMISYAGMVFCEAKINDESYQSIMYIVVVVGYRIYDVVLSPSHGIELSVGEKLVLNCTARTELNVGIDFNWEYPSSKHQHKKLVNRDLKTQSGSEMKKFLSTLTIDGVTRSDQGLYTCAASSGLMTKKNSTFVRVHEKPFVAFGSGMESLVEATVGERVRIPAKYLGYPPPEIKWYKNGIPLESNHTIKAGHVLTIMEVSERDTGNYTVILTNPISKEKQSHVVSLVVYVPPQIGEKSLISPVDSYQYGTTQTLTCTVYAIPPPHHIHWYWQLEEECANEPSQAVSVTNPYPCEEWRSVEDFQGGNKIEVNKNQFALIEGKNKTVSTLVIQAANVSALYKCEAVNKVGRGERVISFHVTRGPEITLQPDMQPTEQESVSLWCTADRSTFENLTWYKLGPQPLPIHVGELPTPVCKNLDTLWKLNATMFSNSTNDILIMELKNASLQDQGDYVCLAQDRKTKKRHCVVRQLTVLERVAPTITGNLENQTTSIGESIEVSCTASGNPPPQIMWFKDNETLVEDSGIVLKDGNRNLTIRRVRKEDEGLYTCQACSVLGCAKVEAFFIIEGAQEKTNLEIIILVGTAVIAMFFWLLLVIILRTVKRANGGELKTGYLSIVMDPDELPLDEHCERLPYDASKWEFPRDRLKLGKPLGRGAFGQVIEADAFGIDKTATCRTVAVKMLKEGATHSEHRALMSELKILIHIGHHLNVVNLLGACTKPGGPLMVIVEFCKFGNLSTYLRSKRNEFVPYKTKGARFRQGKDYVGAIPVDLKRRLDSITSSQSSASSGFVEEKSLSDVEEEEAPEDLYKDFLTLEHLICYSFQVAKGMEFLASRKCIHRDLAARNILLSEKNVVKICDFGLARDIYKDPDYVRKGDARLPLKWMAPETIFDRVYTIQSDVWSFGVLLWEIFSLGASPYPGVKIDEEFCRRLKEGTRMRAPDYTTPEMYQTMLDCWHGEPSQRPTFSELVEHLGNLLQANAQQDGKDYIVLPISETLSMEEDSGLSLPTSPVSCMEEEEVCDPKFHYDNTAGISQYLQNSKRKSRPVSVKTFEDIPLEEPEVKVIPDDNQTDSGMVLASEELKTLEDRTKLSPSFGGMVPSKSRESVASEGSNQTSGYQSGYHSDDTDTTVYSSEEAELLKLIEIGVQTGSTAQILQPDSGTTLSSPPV

Biological target: Vascular endothelial growth factor receptor 2 (Homo sapiens, UniProt P35968)
Test: Inhibitory activity at VEGF-2 receptor.

IC50: 19 nM
SMILES: COc1ccc(-c2cnc3c(-c4ccsc4)cnn3c2)cc1
